Source: patent US20250388669A1 (published 2025)

Chains of the proteins cited; added tags and fusions are not shown. Residues count along the entry.
UniProt P25942, 21-193 limits assumed: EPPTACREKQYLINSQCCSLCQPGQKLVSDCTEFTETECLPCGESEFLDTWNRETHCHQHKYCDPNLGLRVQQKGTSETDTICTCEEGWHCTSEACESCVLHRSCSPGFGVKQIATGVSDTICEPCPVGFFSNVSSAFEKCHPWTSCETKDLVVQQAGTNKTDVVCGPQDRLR

Assays:
B7H3 [1] = biological target: T1, B7H3 (human, UniProt Q5ZPR3 29-466, limits assumed); test: ELISA or FCM (Example 2)
T1 sequence (looked up): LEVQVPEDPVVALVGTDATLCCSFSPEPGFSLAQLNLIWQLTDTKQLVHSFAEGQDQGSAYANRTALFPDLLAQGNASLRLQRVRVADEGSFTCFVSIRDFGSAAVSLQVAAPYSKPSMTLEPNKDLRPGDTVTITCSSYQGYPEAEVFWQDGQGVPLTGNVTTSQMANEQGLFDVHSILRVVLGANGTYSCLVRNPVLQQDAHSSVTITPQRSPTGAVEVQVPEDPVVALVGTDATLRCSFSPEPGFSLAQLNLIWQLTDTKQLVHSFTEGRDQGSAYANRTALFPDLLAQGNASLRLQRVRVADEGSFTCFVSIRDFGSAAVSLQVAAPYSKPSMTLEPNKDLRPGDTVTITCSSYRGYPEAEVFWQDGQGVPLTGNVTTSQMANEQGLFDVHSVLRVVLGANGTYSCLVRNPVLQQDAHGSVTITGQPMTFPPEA

B7H3 [2] = biological target: T2, B7H3 (UniProt Q5ZPR3 29-466, limits assumed); test: FCM or ELISA (graded summary table)
T2 sequence (looked up): T1 sequence (looked up)

CD40 = biological target: T3, CD40 (human, UniProt P25942, in part); test: CD40 binding (method not given)
T3 construct: In the reporter assay it is whole, on GS-H2-huCD40 cells; also called huCD40

B1: Ly2139 (other)
chain 1: QVQLVQSGAEVKKPGASVKVSCKASGYTFTSYVMHWVRQKPGQGLEWIGYINPYNEGTESTDKFKGRATMTSDKSTSTVYMELSSLRSEDTAVYYCASIYYGYEGTYFGVWGQGTLVTVSSASTKGPSVFPLAPSSKSTSGGTAALGCLVKDYFPEPVTVSWNSGALTSGVHTFPAVLQSSGLYSLSSVVTVPSSSLGTQTYICNVNHKPSNTKVDKKVEPKSCGGGGSEVQLVESGGGLVQPGGSLRLSCAASGFTFSTYAMNWVRQAPGKGLEWVGRIRSKYNNYATYYADSVKGRFTISRDDSKNSLYLQMNSLKTEDTAVYYCVRHGNFGNSYVSWFAYWGQGTLVTVSSGGGGSDKTHTCPPCPAPEAAGPSVFLFPPKPKDTLMISRTPEVTCVVVDVSHEDPEVKFNWYVDGVEVHNAKTKPREEQYNSTYRVVSVLTVLHQDWLNGKEYKCKVSNKALPAPIEKTISKAKGQPREPQVYTLPPSREEMTKNQVSLWCLVKGFYPSDIAVEWESNGQPENNYKTTPPVLDSDGSFFLYSKLTVDKSRWQQGNVFSCSVMHEALHNHYTQKSLSLSPGGGGGSGGGGSGGGGSGGGGSQVQLVQSGAEVKKPGASVKVSCKASGYTFTSYYIHWVRQAPGQGLEWIGCIYPGNVNTNYNEKFKDRATLTVDTSISTAYMELSRLRSDDTAVYFCTRSHYGLDWNFDVWGQGTTVTVSS
chain 2: QVQLVQSGAEVKKPGASVKVSCKASGYTFTSYVMHWVRQKPGQGLEWIGYINPYNEGTESTDKFKGRATMTSDKSTSTVYMELSSLRSEDTAVYYCASIYYGYEGTYFGVWGQGTLVTVSSASTKGPSVFPLAPSSKSTSGGTAALGCLVKDYFPEPVTVSWNSGALTSGVHTFPAVLQSSGLYSLSSVVTVPSSSLGTQTYICNVNHKPSNTKVDKKVEPKSCGGGGSQAVVTQEPSLTVSPGGTVTLTCRSSTGAVTTSNYANWVQQKPGQAPRGLIGGTNKRAPWTPARFSGSLLGGKAALTITGAQAEDEADYYCALWYSNLWVFGGGTKLTVLGGGGSDKTHTCPPCPAPEAAGPSVFLFPPKPKDTLMISRTPEVTCVVVDVSHEDPEVKFNWYVDGVEVHNAKTKPREEQYNSTYRVVSVLTVLHQDWLNGKEYKCKVSNKALPAPIEKTISKAKGQPREPQVYTLPPSREEMTKNQVSLSCAVKGFYPSDIAVEWESNGQPENNYKTTPPVLDSDGSFFLVSKLTVDKSRWQQGNVFSCSVMHEALHNRFTQKSLSLSPGGGGGSGGGGSGGGGSGGGGSDIQMTQSPSSLSASVGDRVTITCHASQNIYVWLNWYQQKPGKAPKLLIYKASNLHTGVPSRFSGSGSGTDFTLTISSLQPEDFATYYCQQGQTYPYTFGGGTKVEIK
light: EIVLTQSPATLSLSPGERATLSCRASSSVSYMHWYQQKPGQAPRPWIYATSNLASGIPARFSGSRSGTDYTLTISSLEPEDFAVYYCQQWSSNTLTFGGGTKVEIKRTVAAPSVFIFPPSDEQLKSGTASVVCLLNNFYPREAKVQWKVDNALQSGNSQESVTEQDSKDSTYSLSSTLTLSKADYEKHKVYACEVTHQGLSSPVTKSFNRGEC
notes: Tri-specific antibody: B7H3 Fabs, central CD3 Fv, terminal CD28 Fv; Flexible linker is G4S
B7H3 [1]
  binding result: binds

B2: Ly2128 (other)
chain 1: QVQLVQSGAEVKKPGASVKVSCKASGYTFTSYVMHWVRQKPGQGLEWIGYINPYNEGTESTDKFKGRATMTSDKSTSTVYMELSSLRSEDTAVYYCASIYYGYEGTYFGVWGQGTLVTVSSASTKGPSVFPLAPSSKSTSGGTAALGCLVKDYFPEPVTVSWNSGALTSGVHTFPAVLQSSGLYSLSSVVTVPSSSLGTQTYICNVNHKPSNTKVDKKVEPKSCGGGGSGGGGSGGGGSGGGGSEVQLVESGGGLVQPGGSLRLSCAASGFTFSTYAMNWVRQAPGKGLEWVGRIRSKYNNYATYYADSVKGRFTISRDDSKNSLYLQMNSLKTEDTAVYYCVRHGNFGNSYVSWFAYWGQGTLVTVSSGGGGSDKTHTCPPCPAPEAAGPSVFLFPPKPKDTLMISRTPEVTCVVVDVSHEDPEVKFNWYVDGVEVHNAKTKPREEQYNSTYRVVSVLTVLHQDWLNGKEYKCKVSNKALPAPIEKTISKAKGQPREPQVYTLPPSREEMTKNQVSLWCLVKGFYPSDIAVEWESNGQPENNYKTTPPVLDSDGSFFLYSKLTVDKSRWQQGNVFSCSVMHEALHNHYTQKSLSLSPGGGGGSGGGGSGGGGSGGGGSQVQLVQSGAEVKKPGASVKVSCKASGYTFTSYYIHWVRQAPGQGLEWIGCIYPGNVNTNYNEKFKDRATLTVDTSISTAYMELSRLRSDDTAVYFCTRSHYGLDWNFDVWGQGTTVTVSS
chain 2: QVQLVQSGAEVKKPGASVKVSCKASGYTFTSYVMHWVRQKPGQGLEWIGYINPYNEGTESTDKFKGRATMTSDKSTSTVYMELSSLRSEDTAVYYCASIYYGYEGTYFGVWGQGTLVTVSSASTKGPSVFPLAPSSKSTSGGTAALGCLVKDYFPEPVTVSWNSGALTSGVHTFPAVLQSSGLYSLSSVVTVPSSSLGTQTYICNVNHKPSNTKVDKKVEPKSCGGGGSGGGGSGGGGSGGGGSQAVVTQEPSLTVSPGGTVTLTCRSSTGAVTTSNYANWVQQKPGQAPRGLIGGTNKRAPWTPARFSGSLLGGKAALTITGAQAEDEADYYCALWYSNLWVFGGGTKLTVLGGGGSDKTHTCPPCPAPEAAGPSVFLFPPKPKDTLMISRTPEVTCVVVDVSHEDPEVKFNWYVDGVEVHNAKTKPREEQYNSTYRVVSVLTVLHQDWLNGKEYKCKVSNKALPAPIEKTISKAKGQPREPQVYTLPPSREEMTKNQVSLSCAVKGFYPSDIAVEWESNGQPENNYKTTPPVLDSDGSFFLVSKLTVDKSRWQQGNVFSCSVMHEALHNRFTQKSLSLSPGGGGGSGGGGSGGGGSGGGGSDIQMTQSPSSLSASVGDRVTITCHASQNIYVWLNWYQQKPGKAPKLLIYKASNLHTGVPSRFSGSGSGTDFTLTISSLQPEDFATYYCQQGQTYPYTFGGGTKVEIK
light: B1 light
notes: Tri-specific antibody B7H3 (two Fabs) / CD3 (central Fv) / CD28 (terminal Fv)
B7H3 [2]
  binding result: binds

B3: Ly2121 (other)
chain 1: QVQLVQSGAEVKKPGASVKVSCKASGYTFTSYVMHWVRQKPGQGLEWIGYINPYNEGTESTDKFKGRATMTSDKSTSTVYMELSSLRSEDTAVYYCASIYYGYEGTYFGVWGQGTLVTVSSASTKGPSVFPLAPSSKSTSGGTAALGCLVKDYFPEPVTVSWNSGALTSGVHTFPAVLQSSGLYSLSSVVTVPSSSLGTQTYICNVNHKPSNTKVDKKVEPKSCGGGGSGGGGSGGGGSGGGGSQVQLVQSGAEVKKPGASVKVSCKASGYTFTGYYMHWVRQAPGQGLEWMGWINPDSGGTNYAQKFQGRVTMTRDTSISTAYMELNRLRSDDTAVYYCARDQPLGYCTNGVCSYFDYWGQGTLVTVSSGGGGSDKTHTCPPCPAPEAAGPSVFLFPPKPKDTLMISRTPEVTCVVVDVSHEDPEVKFNWYVDGVEVHNAKTKPREEQYNSTYRVVSVLTVLHQDWLNGKEYKCKVSNKALPAPIEKTISKAKGQPREPQVYTLPPSREEMTKNQVSLWCLVKGFYPSDIAVEWESNGQPENNYKTTPPVLDSDGSFFLYSKLTVDKSRWQQGNVFSCSVMHEALHNHYTQKSLSLSPGGGGGSGGGGSGGGGSGGGGSQVTLKESGPALVKPTQTLTLTCTFSGFSLSTSGTCVSWIRQPPGKALEWLATICWEDSKGYNPSLKSRLTISKDTSKNQAVLTMTNMDPVDTATYYCARREDSGYFWFPYWGQGTLVTVSS
chain 2: QVQLVQSGAEVKKPGASVKVSCKASGYTFTSYVMHWVRQKPGQGLEWIGYINPYNEGTESTDKFKGRATMTSDKSTSTVYMELSSLRSEDTAVYYCASIYYGYEGTYFGVWGQGTLVTVSSASTKGPSVFPLAPSSKSTSGGTAALGCLVKDYFPEPVTVSWNSGALTSGVHTFPAVLQSSGLYSLSSVVTVPSSSLGTQTYICNVNHKPSNTKVDKKVEPKSCGGGGSGGGGSGGGGSGGGGSDIQMTQSPSSVSASVGDRVTITCRASQGIYSWLAWYQQKPGKAPNLLIYTASTLQSGVPSRFSGSGSGTDFTLTISSLQPEDFATYYCQQANIFPLTFGGGTKVEIKGGGGSDKTHTCPPCPAPEAAGPSVFLFPPKPKDTLMISRTPEVTCVVVDVSHEDPEVKFNWYVDGVEVHNAKTKPREEQYNSTYRVVSVLTVLHQDWLNGKEYKCKVSNKALPAPIEKTISKAKGQPREPQVYTLPPSREEMTKNQVSLSCAVKGFYPSDIAVEWESNGQPENNYKTTPPVLDSDGSFFLVSKLTVDKSRWQQGNVFSCSVMHEALHNRFTQKSLSLSPGGGGGSGGGGSGGGGSGGGGSNIQMTQSPSSLSASVGDRVTITCKAGQNVNNYLAWYQQKPGKAPKVLIFNANSLQTGVPSRFSGSGSGTDFTLTISSLQPEDFATYYCQQYNSWPTFGGGTKVEIK
light: B1 light
notes: Tri-specific antibody: B7H3 Fabs, central CD40 Fv, terminal PD-1 Fv
CD40
  EC50: 1.68 µg/mL
